From PubChem BioAssay AID560 (The Scripps Research Institute Molecular Screening Center, 2006)
Only a part is listed here, and it is no random draw. Some of these compounds have results that are not shown, active ones among them. Calls of active or inactive are those of the source.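 Rule for the calls: active = activation above the mean of all tested compounds plus 3 SD (cut at about 49% in these data); inactive = the rest.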

By UniProt entry, the sequences of proteins in these tests, tags left out.
UniProt P35398, whole entry: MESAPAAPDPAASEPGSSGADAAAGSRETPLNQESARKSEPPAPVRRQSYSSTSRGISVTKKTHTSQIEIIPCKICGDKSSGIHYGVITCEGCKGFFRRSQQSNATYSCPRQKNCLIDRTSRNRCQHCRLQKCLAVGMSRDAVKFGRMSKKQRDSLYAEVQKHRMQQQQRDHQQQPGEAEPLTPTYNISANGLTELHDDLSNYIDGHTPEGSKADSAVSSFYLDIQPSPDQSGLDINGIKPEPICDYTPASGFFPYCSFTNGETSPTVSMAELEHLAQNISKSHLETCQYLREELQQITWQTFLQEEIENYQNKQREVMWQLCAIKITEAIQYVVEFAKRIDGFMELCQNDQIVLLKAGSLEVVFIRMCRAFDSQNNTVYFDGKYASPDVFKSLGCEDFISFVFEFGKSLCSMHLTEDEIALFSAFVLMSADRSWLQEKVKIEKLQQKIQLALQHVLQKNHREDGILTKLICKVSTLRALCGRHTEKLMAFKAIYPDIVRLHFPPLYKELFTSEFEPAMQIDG

Each compound was assayed against Nuclear receptor ROR-alpha (Homo sapiens) (UniProt P35398) (assay: RORA ligand-binding domain transcriptional activation – cell-based, luminescence, primary screen (AID 560;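 note: 0% = DMSO-treated RORA cells and 100% = added signal equal to DMSO minus mock-transfected cells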)). Conditions: CHO-K1 Gal4-RORA LBD luciferase reporter, at 10 µM, active compounds read high, percent increase over mock-subtracted basal signal.
`CN(C)c1cccc(C(=O)NCC2(N(C)C)CCCCC2)c1` was tested, and the activation was inactive: -12.3%.
In the case of `O=C(OC1CN2CCC1CC2)C(CO)(c1ccccc1)c1ccccc1` (configuration not stated), the activation is reported as inactive: -11.2%.
